Cyclic peptide permeability, from CycPeptMPDB

Values of Kelly et al. 2021, doi:10.1021/jacs.0c06115, as listed in CycPeptMPDB.

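Lipid, pH, incubation time, direction and concentration are not recorded in the data file. The list need not hold all peptides of the study. Entries at the database's floor value (log10 P of -10) are not listed.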

PAMPA measures passive passage through an artificial lipid membrane.
Permeability is in 10^-6 cm/s, converted from the database's log10 values; higher is more permeable.

- CC(=O)N1CCC[C@@H]1C(=O)N(C)[C@H](CC(C)C)C(=O)N[C@@H]1C(=O)N(C)[C@@H](CC(C)C)C(=O)N[C@@H](CC(C)C)C(=O)N(C)[C@@H](CC(C)C)C(=O)N(C)[C@@H](C)C(=O)N[C@H](CC(C)C)C(=O)N2CCC[C@@H]2C(=O)O[C@@H]1C: PAMPA 1.2 × 10^-6 cm/s
- CC(=O)N1CCC[C@@H]1C(=O)N(C)[C@@H](CC(C)C)C(=O)N[C@@H]1C(=O)N(C)[C@H](CC(C)C)C(=O)N[C@H](CC(C)C)C(=O)N(C)[C@@H](CC(C)C)C(=O)N(C)[C@H](C)C(=O)N[C@H](CC(C)C)C(=O)N2CCC[C@@H]2C(=O)O[C@@H]1C: PAMPA 4.1 × 10^-6 cm/s
- CC(=O)N1CCC[C@H]1C(=O)N(C)[C@@H](CC(C)C)C(=O)N[C@@H]1C(=O)N[C@@H](CC(C)C)C(=O)N[C@H](CC(C)C)C(=O)N[C@H](CC(C)C)C(=O)N[C@@H](C)C(=O)N[C@H](CC(C)C)C(=O)N2CCC[C@@H]2C(=O)O[C@@H]1C: PAMPA 0.051 × 10^-6 cm/s
- CC(=O)N1CCC[C@H]1C(=O)N(C)[C@@H](CC(C)C)C(=O)N[C@@H]1C(=O)N(C)[C@@H](CC(C)C)C(=O)N(C)[C@H](CC(C)C)C(=O)N(C)[C@@H](CC(C)C)C(=O)N(C)[C@H](C)C(=O)N[C@@H](CC(C)C)C(=O)N2CCC[C@@H]2C(=O)O[C@@H]1C: PAMPA 3.1 × 10^-6 cm/s
- CC(=O)N1CCC[C@@H]1C(=O)N(C)[C@@H](CC(C)C)C(=O)N[C@@H]1C(=O)N(C)[C@H](CC(C)C)C(=O)N[C@@H](CC(C)C)C(=O)N[C@H](CC(C)C)C(=O)N(C)[C@@H](C)C(=O)N[C@@H](CC(C)C)C(=O)N2CCC[C@H]2C(=O)O[C@@H]1C: PAMPA 5.1 × 10^-6 cm/s
- CC(=O)N[C@@H]1C(=O)N2CCC[C@H]2C(=O)N(C)[C@H](CC(C)C)C(=O)N[C@@H](CC(C)C)C(=O)N[C@@H](CC(C)C)C(=O)N[C@H](CC(C)C)C(=O)N[C@@H](C)C(=O)N[C@@H](CC(C)C)C(=O)N2CCC[C@@H]2C(=O)O[C@@H]1C: PAMPA 0.072 × 10^-6 cm/s
- CC(=O)N[C@@H]1C(=O)N2CCC[C@H]2C(=O)N(C)[C@H](CC(C)C)C(=O)N(C)[C@@H](CC(C)C)C(=O)N(C)[C@@H](CC(C)C)C(=O)N(C)[C@H](CC(C)C)C(=O)N(C)[C@@H](C)C(=O)N[C@@H](CC(C)C)C(=O)N2CCC[C@@H]2C(=O)O[C@@H]1C: PAMPA 6.6 × 10^-6 cm/s
- CC(=O)N1CCC[C@@H]1C(=O)N(C)[C@@H](CC(C)C)C(=O)N[C@@H]1C(=O)N[C@H](CC(C)C)C(=O)N(C)[C@@H](CC(C)C)C(=O)N(C)[C@H](CC(C)C)C(=O)N(C)[C@H](C)C(=O)N[C@@H](CC(C)C)C(=O)N2CCC[C@@H]2C(=O)O[C@@H]1C: PAMPA 6 × 10^-6 cm/s
- CC(=O)N1CCC[C@H]1C(=O)N(C)[C@@H](CC(C)C)C(=O)N[C@@H]1C(=O)N(C)[C@H](CC(C)C)C(=O)N(C)[C@@H](CC(C)C)C(=O)N(C)[C@H](CC(C)C)C(=O)N[C@@H](C)C(=O)N[C@@H](CC(C)C)C(=O)N2CCC[C@H]2C(=O)O[C@@H]1C: PAMPA 4.4 × 10^-6 cm/s
- CC(=O)N1CCC[C@H]1C(=O)N(C)[C@H](CC(C)C)C(=O)N[C@@H]1C(=O)N[C@@H](CC(C)C)C(=O)N[C@@H](CC(C)C)C(=O)N(C)[C@H](CC(C)C)C(=O)N(C)[C@H](C)C(=O)N[C@@H](CC(C)C)C(=O)N2CCC[C@H]2C(=O)O[C@@H]1C: PAMPA 3.6 × 10^-6 cm/s
- CC(=O)N1CCC[C@H]1C(=O)N(C)[C@H](CC(C)C)C(=O)N[C@@H]1C(=O)N[C@@H](CC(C)C)C(=O)N[C@@H](CC(C)C)C(=O)N(C)[C@H](CC(C)C)C(=O)N[C@@H](C)C(=O)N[C@@H](CC(C)C)C(=O)N2CCC[C@@H]2C(=O)O[C@@H]1C: PAMPA 0.01 × 10^-6 cm/s
- CC(=O)N1CCC[C@H]1C(=O)N[C@@H]1C(=O)N(C)[C@H](CC(C)C)C(=O)N[C@H](CC(C)C)C(=O)N(C)[C@@H](CC(C)C)C(=O)N[C@H](CC(C)C)C(=O)N(C)[C@@H](C)C(=O)N[C@@H](CC(C)C)C(=O)N2CCC[C@@H]2C(=O)O[C@@H]1C: PAMPA 11 × 10^-6 cm/s
- CC(=O)N1CCC[C@@H]1C(=O)N(C)[C@@H](CC(C)C)C(=O)N[C@@H]1C(=O)N[C@H](CC(C)C)C(=O)N(C)[C@@H](CC(C)C)C(=O)N[C@@H](CC(C)C)C(=O)N(C)[C@@H](C)C(=O)N[C@@H](CC(C)C)C(=O)N2CCC[C@@H]2C(=O)O[C@@H]1C: PAMPA 6.6 × 10^-6 cm/s
- CC(=O)N1CCC[C@@H]1C(=O)N(C)[C@@H](CC(C)C)C(=O)N[C@@H]1C(=O)N[C@H](CC(C)C)C(=O)N[C@@H](CC(C)C)C(=O)N(C)[C@@H](CC(C)C)C(=O)N[C@@H](C)C(=O)N[C@@H](CC(C)C)C(=O)N2CCC[C@@H]2C(=O)O[C@@H]1C: PAMPA 4.1 × 10^-6 cm/s
- CC(=O)N1CCC[C@@H]1C(=O)N(C)[C@@H](CC(C)C)C(=O)N[C@@H]1C(=O)N[C@H](CC(C)C)C(=O)N(C)[C@@H](CC(C)C)C(=O)N[C@H](CC(C)C)C(=O)N[C@@H](C)C(=O)N[C@H](CC(C)C)C(=O)N2CCC[C@@H]2C(=O)O[C@@H]1C: PAMPA 1.1 × 10^-6 cm/s
- CC(=O)N1CCC[C@H]1C(=O)N[C@@H]1C(=O)N(C)[C@H](CC(C)C)C(=O)N[C@H](CC(C)C)C(=O)N(C)[C@H](CC(C)C)C(=O)N[C@H](CC(C)C)C(=O)N(C)[C@@H](C)C(=O)N[C@@H](CC(C)C)C(=O)N2CCC[C@@H]2C(=O)O[C@@H]1C: PAMPA 1 × 10^-6 cm/s
- CC(=O)N1CCC[C@H]1C(=O)N(C)[C@H](CC(C)C)C(=O)N[C@@H]1C(=O)N(C)[C@H](CC(C)C)C(=O)N(C)[C@H](CC(C)C)C(=O)N[C@H](CC(C)C)C(=O)N(C)[C@H](C)C(=O)N[C@H](CC(C)C)C(=O)N2CCC[C@@H]2C(=O)O[C@@H]1C: PAMPA 3 × 10^-6 cm/s
- CC(=O)N1CCC[C@H]1C(=O)N(C)[C@H](CC(C)C)C(=O)N[C@@H]1C(=O)N(C)[C@H](CC(C)C)C(=O)N[C@H](CC(C)C)C(=O)N(C)[C@@H](CC(C)C)C(=O)N(C)[C@@H](C)C(=O)N[C@@H](CC(C)C)C(=O)N2CCC[C@@H]2C(=O)O[C@@H]1C: PAMPA 4.3 × 10^-6 cm/s
- CC(=O)N[C@@H]1C(=O)N2CCC[C@H]2C(=O)N(C)[C@H](CC(C)C)C(=O)N[C@@H](CC(C)C)C(=O)N[C@H](CC(C)C)C(=O)N[C@@H](CC(C)C)C(=O)N[C@H](C)C(=O)N[C@@H](CC(C)C)C(=O)N2CCC[C@@H]2C(=O)O[C@@H]1C: PAMPA 0.1 × 10^-6 cm/s

The 3 highest values of PAMPA among the entries above:

structure (SMILES)	PAMPA (10^-6 cm/s)
CC(=O)N1CCC[C@H]1C(=O)N[C@@H]1C(=O)N(C)[C@H](CC(C)C)C(=O)N[C@H](CC(C)C)C(=O)N(C)[C@@H](CC(C)C)C(=O)N[C@H](CC(C)C)C(=O)N(C)[C@@H](C)C(=O)N[C@@H](CC(C)C)C(=O)N2CCC[C@@H]2C(=O)O[C@@H]1C	11
CC(=O)N1CCC[C@@H]1C(=O)N(C)[C@@H](CC(C)C)C(=O)N[C@@H]1C(=O)N[C@H](CC(C)C)C(=O)N(C)[C@@H](CC(C)C)C(=O)N[C@@H](CC(C)C)C(=O)N(C)[C@@H](C)C(=O)N[C@@H](CC(C)C)C(=O)N2CCC[C@@H]2C(=O)O[C@@H]1C	6.6
CC(=O)N[C@@H]1C(=O)N2CCC[C@H]2C(=O)N(C)[C@H](CC(C)C)C(=O)N(C)[C@@H](CC(C)C)C(=O)N(C)[C@@H](CC(C)C)C(=O)N(C)[C@H](CC(C)C)C(=O)N(C)[C@@H](C)C(=O)N[C@@H](CC(C)C)C(=O)N2CCC[C@@H]2C(=O)O[C@@H]1C	6.6